{"source": "patent US20190134000A1", "about": "“COMPOUNDS TO PROMOTE NORMAL PROCESSING OF APP” (Buck Institute for Research on Aging, priority 2016, published 2019)", "assay": "in vitro", "conditions": "human", "procedure": "The second batch of C41 was tested for plasma protein binding, ADME-tox screening (microsomal intrinsic clearance), and ADME-tox screening (CYP inhibition screen). PK in rats was determined to determine a dose of non-GLP Pharm-Tox screening. Additionally, acute toxicity in rats (pre-subchronic toxicity) and non-GLP subchronic toxicity was determined.", "data": [{"smiles": "CC(C)NCC(O)COc1cccc2ccccc12", "note": "(stereo not shown) [propranolol, reference compound]", "values": [{"measurement": "recovery", "value": 96, "unit": "%"}]}]}
